The series in a line: Acid dissociation constant (pKa). In kind it is physicochemical. The following applies: 22±2°C, methanol co-solvent, 0.15 M KCl; read-out: pKa (potentiometric method), first value.

The term pKa denotes the negative logarithm of the acid dissociation constant.

As to `CN(C)c1cc(-c2ccncc2)c(-c2ccc3ccccc3c2)nn1` [MW108, N, N-dimethyl-6-(naphthalen-2-yl)-5-(pyridin-4-yl)pyridazin-3-amine], the pKa turned out to be 4.48 ± 0.09.

(Values after article PMC3694096, “Development of Novel In Vivo Chemical Probes to Address CNS Protein Kinase Involvement in Synaptic Dysfunction” (PLoS ONE, 2013).)
